Columns and labels:
[1] = Phospholipid binding at pH 7.4 on IAM PC.DD2 HPLC column
[2] = CHI lipophilicity by gradient reversed-phase HPLC (Gemini NX-C-18); settings: pH 7.4
[3] = Charge character of the drugs at pH 7.4
[4] = molecular target: human serum albumin (HSA) (Homo sapiens, UniProt P02768); settings: pH 7.4, Chiralpak HSA
[5] = pH 7.4, derived from CHI IAM by equation 1

Sequences of proteins named here, by UniProt entry; tags and fusion partners are left off. Residues count along the entry.
UniProt P02768, 25-609: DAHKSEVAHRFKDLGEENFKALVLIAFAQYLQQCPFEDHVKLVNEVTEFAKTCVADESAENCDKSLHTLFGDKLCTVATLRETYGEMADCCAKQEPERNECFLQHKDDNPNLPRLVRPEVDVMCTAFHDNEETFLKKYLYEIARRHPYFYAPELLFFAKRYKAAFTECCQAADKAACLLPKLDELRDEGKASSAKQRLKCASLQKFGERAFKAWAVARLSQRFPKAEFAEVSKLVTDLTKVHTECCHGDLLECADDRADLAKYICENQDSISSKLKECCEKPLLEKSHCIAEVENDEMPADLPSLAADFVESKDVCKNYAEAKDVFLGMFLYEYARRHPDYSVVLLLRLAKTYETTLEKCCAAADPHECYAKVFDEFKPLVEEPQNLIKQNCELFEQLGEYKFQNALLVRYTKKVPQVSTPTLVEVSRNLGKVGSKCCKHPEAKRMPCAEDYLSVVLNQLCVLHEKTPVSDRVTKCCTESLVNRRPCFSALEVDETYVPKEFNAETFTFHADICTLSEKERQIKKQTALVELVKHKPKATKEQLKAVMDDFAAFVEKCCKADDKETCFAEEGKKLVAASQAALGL

Substance	CHI IAM ([1]; pH 7.4)	log k IAM [1, 5]	CHI log D7.4 [2]	Charge [3]	log k IAM ([1]; pH 7.4)	log k HSA [4]
Alfuzosin	34.60	1.98	0.79	Weak Base		
Desloratadine	54.56	2.93	1.32			
Imipramine	39.44		2.05	Basic	2.23	
Nicotine	13.79		0.12	Weak Base	1.05	-0.03
Prazosin	26.32	1.63	1.09	Weak Base		
Propafenone					2.54	
